## Ab-14 light chain CDR variants: yeast mating affinities

All variants were tested on one target, the spike HR2 peptide PDVDLGDISGINAS (SARS-CoV-2).

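Phage display of a naive human antibody library on the peptide gave the parent. Designed CDR sequences, proposed from the first random library and measured here. Group labels follow the data file (Ctrl: baseline library sampled from a position-specific scoring matrix, with some repeated check sequences; Rand: our label for a block that the file lists under HC and that is probably the random mutants of the ten best first-round binders; En: ensemble of fine-tuned language models; GP: Gaussian process model; HC: hill climbing; Gen: genetic algorithm; Gibbs: Gibbs sampling; a sequence that several methods proposed may carry one label only). The scFvs were displayed on barcoded MATa yeast, the peptide on MATalpha yeast. After mating in shaken culture at 30 °C for 16 h, diploids were selected and their barcode pairs sequenced. Each replicate has its own calibration line, from reference interactions of the BCL2 family. There are six technical replicates.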

Parent: Ab-14, a human scFv built as VH, three GGGGS repeats, VL. Only the CDRs of the light chain vary.
VH: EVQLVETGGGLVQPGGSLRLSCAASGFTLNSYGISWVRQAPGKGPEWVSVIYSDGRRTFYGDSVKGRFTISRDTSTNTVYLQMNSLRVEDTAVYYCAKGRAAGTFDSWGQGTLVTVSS
VL: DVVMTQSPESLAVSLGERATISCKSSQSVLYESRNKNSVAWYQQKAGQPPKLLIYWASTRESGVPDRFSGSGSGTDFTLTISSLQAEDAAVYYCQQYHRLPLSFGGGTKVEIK

The parent's light chain CDRs are KSSQSVLYESRNKNSVA, WASTRES, QQYHRLPLS; each variant's own CDRs replace them letter for letter. Each Kd is an estimate from the mating assay, the geometric mean of the replicates in which the pair was seen; lower is stronger. "nd" marks a missing value. The strain was present, yet no cells mated with the target were sequenced in any replicate, which points to weak or no binding. Entries are sorted by rising average, undetected variants last.

| # | CDR-L1 | CDR-L2 | CDR-L3 | group | Kd (apparent) | detected |
|---|---|---|---|---|---|---|
| 1 | KSSQSVLYESRNKNSVA | EASTREH | QQYSRLPLS | Ctrl | 420 pM | 6/6 |
| 2 | KLSQSVLYESRNKASVA | NASTRES | QQYHRLPLS | GP_Gen | 480 pM | 6/6 |
| 3 | KLDQSCQYESRNKNSVA | NASTRES | QQYHRLPLS | GP_Gibbs | 490 pM | 6/6 |
| 4 | HLSESVLYESRNKNSVA | NASTRES | QQYHRLPLS | GP_HC | 550 pM | 6/6 |
| 5 | KISQEDPYENRNHNNVA | HASLRES | QQYHRLPLS | GP_Gibbs | 600 pM | 6/6 |
| 6 | KVSQSWLYESRNWNSVA | NASTRES | QQYHRLPLS | GP_Gen | 650 pM | 6/6 |
| 7 | KLPQSVLYESRNKNSVA | NASQRED | QQYHRLPLS | GP_Gen | 650 pM | 6/6 |
| 8 | KLRQSINYESRNKNSVA | NASTRES | QQYHRLPLS | GP_HC | 670 pM | 6/6 |
| 9 | KLSQSVLYQSRNKNSVA | DASTRES | QQYHRLPLS | GP_Gen | 670 pM | 6/6 |
| 10 | KVEQSHLYESRNKNSVA | NASQRES | QQYHRLPLS | GP_Gen | 830 pM | 6/6 |
| 11 | KLHQSVGYESRNKNSVA | GASQRES | QQYHRLPLS | GP_Gibbs | 870 pM | 6/6 |
| 12 | KISESWLYEPRNSNSVA | NASTRQM | QQYHRLPLS | GP_Gibbs | 920 pM | 6/6 |
| 13 | KMQQSELYESRNKNSVA | NASTRES | QQYHRLPLS | GP_Gen | 1.0 nM | 6/6 |
| 14 | TLYGLSNSMSKNKNNVA | EMSTREP | QQYDRLPLE | En_Gen | 1.1 nM | 6/6 |
| 15 | HSSPSNLYESRNKNSVA | NASTRES | QQYHRLPLS | GP_HC | 1.3 nM | 6/6 |
| 16 | ILYQSQLYESRNKNSVA | QASQREM | QQYHRLPLS | GP_Gibbs | 1.4 nM | 6/6 |
| 17 | TISQSMQQESHNKNSVA | DLSVRGS | QQYHRLPLS | En_HC | 1.5 nM | 6/6 |
| 18 | ILSQSMLYESRNKNSVA | NASQRWS | QDYHRLPLS | GP_Gibbs | 1.8 nM | 6/6 |
| 19 | NLYQSMNFGGRVMNSIA | DVSTLPD | QQYHRLPLS | En_HC | 1.8 nM | 6/6 |
| 20 | QSSQSQLYESRNKNSVA | GASTRES | QQYHRLPLS | GP_HC | 1.9 nM | 6/6 |
| 21 | KIQQSVYYEDLNKNSVA | SASTRCS | QQYHRLPLS | GP_Gibbs | 2.1 nM | 6/6 |
| 22 | KIGMTLNQLQEKKNNVA | DLVVREN | QQYHRLPLS | En_Gen | 2.3 nM | 6/6 |
| 23 | QIYQAMHTLSQQKDNVA | DVNERGT | QQYFRLPLS | En_Gen | 2.3 nM | 6/6 |
| 24 | KSSGSVMGEDMNKNSVA | HASQRES | QQYHRLPLS | GP_Gibbs | 2.4 nM | 6/6 |
| 25 | KSSQSVQYESRNKNSVA | GASTRES | QQYHRLPLS | Ctrl | 2.6 nM | 6/6 |
| 26 | KLASVTGTEKVIGNNVA | EMETREK | QQYNRLPLS | En_Gen | 3.0 nM | 6/6 |
| 27 | KLSVSWLFESIEKNSVA | ERSTREH | QDYNRLPLS | En_HC | 3.1 nM | 3/6 |
| 28 | KLSQSVLYESRNHNSVA | WASTRES | QQYHRLPLS | Ctrl | 3.8 nM | 6/6 |

Further variants, results first:

| # | Kd (apparent) | detected | CDR-L1 | CDR-L2 | CDR-L3 | group |
|---|---|---|---|---|---|---|
| 29 | 4.1 nM | 6/6 | KSSQSVLYESLNKNSVA | EASQRES | QQYHRLPLS | GP_HC |
| 30 | 4.1 nM | 6/6 | SLQSEQIGGNQQTSSIA | GESVAMP | QHYERLPLS | En_Gibbs |
| 31 | 4.8 nM | 6/6 | TISQVMNTLTRHGNNVA | DLQNREN | QQYFRLPLS | En_Gen |
| 32 | 4.8 nM | 6/6 | RVTNEFGKEMERKNSVA | HTDQRCM | QQYFRLPLI | En_Gibbs |
| 33 | 6.1 nM | 6/6 | NIVGRVEDNQTENNAIA | DAHCRAG | QQYSRLPLS | En_Gibbs |
| 34 | 12 nM | 6/6 | MMSQVTGMGQRHRNNVA | QTSMRET | QQYDRLPLI | En_Gen |
| 35 | 17 nM | 6/6 | MISMLTMYGSRNKNSVA | DLSTRGS | QQYHRLPLS | En_HC |
| 36 | 17 nM | 6/6 | KQSQSVLYESRNKNSVA | DAGTRES | FQYFRLPLS | Rand |
| 37 | 18 nM | 6/6 | MISQLYNMGSFAINSVA | QASQRNA | QQYDRLPLM | En_Gen |
| 38 | 26 nM | 6/6 | VLGQNTDEREMYCDNIA | DATHREA | QQYYRLPFV | En_Gibbs |
| 39 | 26 nM | 6/6 | KSSQSVLYESRNKNSVA | HASQRES | QQYHRHPLS | Ctrl |
| 40 | 35 nM | 5/6 | IISANNVMQGSNWDAVA | QGEIANN | QQYARLPLS | En_Gibbs |
| 41 | 38 nM | 5/6 | LISSVWDYGSRNYNSVA | QTSTREN | QQYDRLPLE | En_HC |
| 42 | 42 nM | 6/6 | MISQVLNTLTRTGNNVA | DLAEREQ | QQYFRLPLS | En_Gen |
| 43 | 46 nM | 6/6 | KLKIEVIDNQQLRNSIA | ENELRAM | QQYLSLPLS | En_Gibbs |
| 44 | 61 nM | 6/6 | KSSQSVLYESRNKNSIA | WASTRES | QQYNRLPLS | Ctrl |
| 45 | 64 nM | 4/6 | KFSQPVLYESRNLNSVA | HASTRES | QQYHRLPLS | Ctrl |
| 46 | 70 nM | 1/6 | TLSDSVKMESRNTNSVA | DNSTRGS | QQYDRLPLS | En_HC |
| 47 | 73 nM | 6/6 | SVPSEMNQQQTQVNAVA | GEQHTAR | QQYGRLPLS | En_Gibbs |
| 48 | 84 nM | 3/6 | MVSQIMLWGLHAKNSIA | EAQTRLN | QQYDRLPLF | En_Gen |
| 49 | 190 nM | 6/6 | HITYGMYVAGRHHSSIA | QAETRAK | QQYDRLPLI | En_Gen |
| 50 | 250 nM | 1/6 | KQSQSWLFEHRNPNSVA | FLSTRES | QQYNRLPES | Ctrl |
| 51 | 490 nM | 6/6 | TLYGLSNSMSINKDSVA | EMTTREK | QQYDRLPLM | En_Gen |
| 52 | 1.6 µM | 2/6 | TISELHNQALGTRNNVA | NNQTRED | QQYDRLPLS | En_Gen |
| 53 | nd | 0/6 | KSSQSVLYESRNKNSVA | WASTGES | QQYHRLPLC | Ctrl |
| 54 | nd | 0/6 | KSSKSVLYESRNKNSVA | WASTRER | QQYHRLPLS | Ctrl |
| 55 | nd | 0/6 | SLAESAHLETRNKNSVA | DNSTRES | QHYDRLPLS | En_HC |
| 56 | nd | 0/6 | HSSQSVLQESRNKNSVA | WASTREW | QQYARLPPS | Ctrl |

From the list, the first 4 with no signal in any replicate:

| CDR-L1 | CDR-L2 | CDR-L3 | group | Kd (apparent) | detected |
|---|---|---|---|---|---|
| KSSQSVLYESRNKNSVA | WASTGES | QQYHRLPLC | Ctrl | nd | 0/6 |
| KSSKSVLYESRNKNSVA | WASTRER | QQYHRLPLS | Ctrl | nd | 0/6 |
| SLAESAHLETRNKNSVA | DNSTRES | QHYDRLPLS | En_HC | nd | 0/6 |
| HSSQSVLQESRNKNSVA | WASTREW | QQYARLPPS | Ctrl | nd | 0/6 |

The range of this assay differs from that of the first round, and the authors advise against merging the two. The parent sequence was in this pool as ten entries: three were never detected, three once, and four in most replicates, with averages from 2.2 nM to 240 nM. Three control strains display no target. For all light chain designs, 4% of the pairings with them gave a signal, with a median of 430 nM and one signal in twenty below 38 nM, so weak values seen in few replicates may be background. The authors averaged sequences with at least three values out of six and counted those with two or fewer as poor binders.

Values reported by Li et al. 2023, doi:10.1038/s41467-023-39022-2 (FLAb copy).